Reported melting point values for industrial, environmental and drug-like chemicals

From the experimental data distributed with OPERA 2.9.

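These are experimental values that the OPERA curators gathered from public databases to train and test their QSAR models. A listed value is a point estimate from one report or more. Method, purity and exact conditions of the single measurements are not given. Where a salt, mixture or single isomer is drawn, the source does not say that exactly this form was tested. Some entries may be limits or estimates that an upstream database listed as plain numbers.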

The melting point is given in degrees Celsius. "via" names the databases from which the curators took the value.

- Cc1nc(N=C(N)N)nc2ccccc12 [N-(4-methylquinazolin-2-yl)guanidine]: melting point 340 °C (via OCHEM)
- CC(C)[C@@H](Nc1ccc(C(F)(F)F)cc1Cl)C(=O)O: melting point 130 °C (via OCHEM)
- COc1ccc2[nH]c(=O)c(C(=O)O)cc2c1 [2-hydroxy-6-methoxyquinoline-3-carboxylic acid]: melting point 310 °C (via OCHEM)
- CC(=O)NCc1ccc(S(N)(=O)=O)cc1 [N-((4-(Aminosulphonyl)phenyl)methyl)acetamide]: melting point 171 °C (via OCHEM)
- Clc1ccc2nncn2n1 [6-chloro[1,2,4]triazolo[4,3-b]pyridazine]: melting point 214 °C (via OCHEM)
- CCOC(=O)c1oc2ccc(OC)cc2c1C [Ethyl 5-methoxy-3-methyl-1-benzofuran-2-carboxylate]: melting point 104 °C (via OCHEM)
- CNCC(O)C(O)C(O)C(O)CO.CNCC(O)C(O)C(O)C(O)CO.O=C([O-])CN(CCN(CC(=O)[O-])CC(=O)[O-])CCN(CC(=O)[O-])C(COCc1ccccc1)C(=O)[O-].[Gd+3].[H+].[H+] (centres undefined) [Gadobenate dimeglumine]: melting point 124 °C (via PubChem)
- COc1cccc(Nc2n[nH]c(=S)s2)c1 [5-(3-Methoxyanilino)-1,3,4-thiadiazole-2(3H)-thione]: melting point 209 °C (via OCHEM)
- COc1cc(C#N)cc(Cl)c1O [3-chloro-4-hydroxy-5-methoxybenzonitrile]: melting point 142 °C (via OCHEM)
- NC(=NO)c1cccc(Br)c1 [3-Bromo-N-hydroxy-benzamidine]: melting point 133 °C (via OCHEM)
- N#CCC1C(=O)Nc2ccccc21 (centres undefined) [2,3-Dihydro-2-oxo-1H-indole-3-acetonitrile]: melting point 162 °C (via OCHEM)
- CCOC(=O)c1c(C)[nH]c(C=O)c1C: melting point 163 °C (via OCHEM)
- O=C(O)c1ccccc1Nc1ccc(OC(F)F)cc1 [Anthranilic acid, N-(p-(difluoromethoxy)phenyl)-]: melting point 154 °C (via OCHEM)
- CCCCC[C@H]1CC[C@H](C(=O)O)CC1 [trans-4-Pentylcyclohexanecarboxylic acid]: melting point 53.5 °C (via OCHEM)
- C[C@H]1CC[C@@H]2N(C1)C[C@@H]1[C@H]([C@@H](O)[C@H](O)[C@]3(O)[C@H]1C[C@@]14O[C@@]5(O)[C@@H]([C@@H](O)[C@@H](O)[C@@H]31)[C@]4(C)CC[C@@H]5O)[C@]2(C)O [Protoverine]: melting point 221 °C (via OCHEM)
- Cc1cn2c(C=O)c(C)nc2s1 [2,6-Dimethylimidazo[2,1-b][1,3]thiazole-5-carbaldehyde]: melting point 154 °C (via OCHEM)
- COc1ccc(-c2nn(-c3ccccc3)cc2C=O)cc1 [3-(4-Methoxyphenyl)-1-phenyl-1H-pyrazole-4-carbaldehyde]: melting point 136 °C (via OCHEM)
- N#CCCn1ccnc1 [3-(1H-Imidazol-1-yl)propanenitrile]: melting point -79 °C (via eChemPortal)
- CCOC(=O)c1[nH]c2c(c1C)C(=O)CC(C)(C)C2: melting point 161 °C (via OCHEM)
- Nc1ccc(-c2cn3ccsc3n2)cc1 [4-Imidazo[2,1-b]thiazol-6-yl-phenylamine]: melting point 200 °C (via OCHEM)
- N#Cc1ccc(-c2csc(N)n2)cc1 [4-(2-amino-1,3-thiazol-4-yl)benzonitrile]: melting point 268 °C (via OCHEM)
- Nc1ccc(S(=O)(=O)N2CCCCCC2)cc1 [4-(azepan-1-ylsulfonyl)aniline]: melting point 106 °C (via OCHEM)
- Nc1nc(-c2ccccc2)c(-c2ccccc2)o1 [2-Amino-4,5-diphenyloxazole]: melting point 151 °C (via OCHEM)
- CCN(CC)S(=O)(=O)c1ccc(Cl)nc1 [6-Chloro-N,N-diethylpyridine-3-sulfonamide]: melting point 83 °C (via OCHEM)
- Clc1ccc(OCCBr)c(Br)c1 [2-bromo-1-(2-bromoethoxy)-4-chlorobenzene]: melting point 31 °C (via OCHEM)
- Cc1cc(C)c(C(=O)O)c(Cl)n1 [2-Chloro-4,6-dimethylnicotinic acid]: melting point 80 °C (via OCHEM)
- COc1ccc2c(c1)CC[C@@H]1[C@@H]2CC[C@]2(C)[C@@H](OC(C)=O)CC[C@@H]12: melting point 105 °C (via eChemPortal)
- CC(O)CNCCC#N (centres undefined) [3-[(2-Hydroxypropyl)amino]propanenitrile]: melting point 49 °C (via eChemPortal)
- O=C(O)C=Cc1ccncc1 [3-(4-Pyridinyl)-2-propenoic acid]: melting point 265 °C (via OCHEM)
- C=CCn1c(=S)[nH]c2sccc2c1=O: melting point 213 °C (via OCHEM)

The first 5 entries again:

{"smiles": "Cc1nc(N=C(N)N)nc2ccccc12", "name": "N-(4-methylquinazolin-2-yl)guanidine", "melting point (°C)": "340", "via": "OCHEM"}
{"smiles": "CC(C)[C@@H](Nc1ccc(C(F)(F)F)cc1Cl)C(=O)O", "melting point (°C)": "130", "via": "OCHEM"}
{"smiles": "COc1ccc2[nH]c(=O)c(C(=O)O)cc2c1", "name": "2-hydroxy-6-methoxyquinoline-3-carboxylic acid", "melting point (°C)": "310", "via": "OCHEM"}
{"smiles": "CC(=O)NCc1ccc(S(N)(=O)=O)cc1", "name": "N-((4-(Aminosulphonyl)phenyl)methyl)acetamide", "melting point (°C)": "171", "via": "OCHEM"}
{"smiles": "Clc1ccc2nncn2n1", "name": "6-chloro[1,2,4]triazolo[4,3-b]pyridazine", "melting point (°C)": "214", "via": "OCHEM"}